The record followed here is PubChem BioAssay AID743050 (The Scripps Research Institute Molecular Screening Center, 2013).

Only a part is listed here, and it is no random draw. Calls of active or inactive are those of the source.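 Rule for the calls: active = mean activation over triplicate wells above the hit cutoff derived from the earlier primary screen (cut at about 11% in these data); inactive = the rest.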

This assay deals with DAF-12 nuclear receptor (Heterodera glycines), GAL4-LBD fusion. In words: hgDAF-12 GAL4 fusion reporter activation, retest – cell-based, luminescence, HEK293, GAL4-LBD fusion, confirmation (AID 743050).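 Note: 0% = DMSO low control and 100% = 2 mM sodium butyrate high control.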 The conditions noted are these: HEK293 GAL4-hgDAF12 luciferase reporter, agonist mode; at 6.8 µM; active compounds read high; percent of butyrate response.
As for `O=P1(N(CCCl)CCCl)Nc2ccccc2N1`, the activation was active: 10.7%.
